Compound activity: PubChem, several laboratories
FN deposit inh: inhibitors of fibronectin matrix deposition, primary screen, AH1F cells, Alexa488-fibronectin fluorescence, plate reader | AH1F fibroblasts, overnight | inhibition, % at 12.6 µM | hit rate 0.086% among 350,000 | AID 743247, 2014;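 active means mean inhibition across replicates of 30% or more, regardless of how many single replicates reach that level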
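Test system: AH1F fibroblast monolayer depositing Alexa488-labelled fibronectin into matrix. Input: 10000 cells per well. Technique: fluorescence, ex 485 nm, em 525 nm. Buffer or medium: DMEM plus 2% serum, read in PBS. Timing: 1 h cell adhesion before compound, then overnight fibronectin incubation. Compound: single dose, pinned. Read-out basis: inhibition from reduced deposited-fibronectin fluorescence.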
Statin myotox sup: suppressors of statin myotoxicity in C2C12 myotubes, primary screen, cell-based, single point, plate reader; C2C12 myotubes + simvastatin, ATP luminescence, 48 h; scaled: DMSO 0, geranylgeraniol control 100; rescue of ATP level, % at 7.49 µM; hit rate 0.78% among 330,000; AID 602340, 2012;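 active means mean ATP rescue above about 67%, or every replicate alone reaching that limit, limit read from the data, passing the limit was not always enough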;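 further: myotubes were challenged with 10 µM simvastatin during compound exposure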
PGC1a acetyl inh: inhibitors of PGC1a acetylation signal, primary screen, cell-based, U2OS, AlphaScreen, inhibitor mode. hit rate 0.17% among 350,000. AlphaScreen anti-acetyl-lysine; with virally co-expressed GCN5 acetyltransferase. AID 651687, 2012. inhibition, % at 15.6 µM;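 active means every replicate shows inhibition of at least 40%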
Yeast UUG start-1: alters start codon recognition fidelity in yeast; S. cerevisiae UUG-firefly luciferase reporter, luminescence/redox ratio; activity score, % at 18.7 µM; actives 0.13% (n = 350,000); AID 602363;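 active = replicate mean at a twofold rise or more, about +100% in these data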;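 also: firefly luciferase made from a UUG start codon reports start codon fidelity; reporter light over untreated wells divided by growth signal over untreated wells; some hits fall short of that in this replicate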
hiPSC survival: enhancers of single-cell hiPSC survival, primary screen, ATPlite luminescence; 100% = ROCK inhibitor wells, 0% = DMSO; survival enhancement, % at 20 µM; hit rate 0.044% among 360,000; AID 602274, 2012; in the data active means survival enhancement above about 18%;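 further: cells exposed to compounds for 16 hours before the ATP read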
Yeast UUG start-2: enhancers of UUG start codon usage in yeast, dose response, S. cerevisiae, UUG firefly luciferase, cherry-pick, set 2; shares compounds with Yeast UUG start-1; luminescence, 4 h; 100% means double the DMSO signal; activation, % at 38 µM; 540 tested, under 10 active; AID 652061, 2013;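 active means signal increase whose fitted curve reaches an absolute level of 40 at a concentration under 10 µM; inactive means activity opposite to the expected increase, or the rest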
Numbers stand for hits; - = inactive; . = not tested or not shown. Compounds with a hit are over-represented: about 0.91% of the library has one in this group of screens.

SMILES | FN deposit inh | Statin myotox sup | PGC1a acetyl inh | Yeast UUG start-1 | hiPSC survival | Yeast UUG start-2
NCCCC[C@@H]1NC(=O)[C@H](CCC(=O)O)NC(=O)c2cc([N+](=O)[O-])cc(I)c2SC[C@@H](C(=O)NCC(N)=O)NC1=O | - | - | - | 119 | - | -
CC1CCN(CCCNC(=O)c2cc3c(Cl)nc4ccccc4c3s2)CC1 | - | - | - | - | - | .
O=C(NCCCN1CCCC1)c1cc2c(Cl)nc3ccccc3c2s1 | - | - | - | 486 | - | -
COCc1cn(CC[C@H]2CC[C@@H](NC(=O)CCN3CCCCC3)[C@H](CO)O2)nn1 | - | - | - | - | . | .
CCCNC(=O)N[C@@H]1CC[C@@H](CCn2cc(C3CC3)nn2)O[C@H]1CO | - | - | - | - | . | .
CN(C)CC(=O)N[C@H]1CC[C@H](CCn2cc(CN(C)C)nn2)O[C@H]1CO | - | - | - | 191 | . | -
COCc1cn(CC[C@@H]2CC[C@H](NC(=O)CCN3CCCCC3)[C@@H](CO)O2)nn1 | - | - | - | 39 | . | -
CC(C)c1cn(CC[C@@H]2CC[C@H](N)[C@@H](CO)O2)nn1 | - | - | - | 193 | . | -
CCCNC(=O)N[C@H]1CC[C@H](CCn2cc(C3CC3)nn2)O[C@@H]1CO | - | - | - | 145 | . | -
CN(C)C(=O)c1ccc(-c2ccc([C@H]3[C@H](CO)N4CCCCN(C(=O)C5CCCC5)C[C@@H]34)cc2)cc1 | . | . | - | - | . | .
CCNC(=O)[C@@H]1[C@@H](CO)[C@@H]2Cn3c(ccc(-c4ccc(OC)cc4)c3=O)[C@H]1N2CC | . | - | . | . | . | .
COc1ccc(-c2cn(CC(=O)N3CCN(C)CC3)nn2)cc1OC | . | . | - | 148 | . | -
COc1ccc(-c2nc(CSCC(=O)N3CCN(C)CC3)c(C)o2)cc1OC | - | - | - | - | - | .
O=C(NCc1cccc(Cl)c1)c1ccc(-n2cncn2)c2ccoc12 | - | - | - | - | - | .
COc1ccc(CNC(=O)c2ccc(-n3cncn3)c3ccoc23)cc1OC | - | - | - | - | - | .
COc1ccc(CNC(=O)c2ccc(-n3ccnc3)c3ccoc23)cc1OC | - | - | - | 177 | - | -
O=C(NCc1cccc(Cl)c1)c1ccc(-n2ccnc2)c2ccoc12 | - | - | - | 126 | - | -
Cc1ccccc1-n1c(SCC(=O)c2cc(C)n(C)c2C)nnc1-c1ccncc1 | - | - | - | - | - | -
Cc1ccccc1-n1c(SCC(=O)N(C)C2CCS(=O)(=O)C2)nnc1-c1ccncc1 (stereo unspecified) | - | - | - | - | - | .
O=C(NCCN1CCOCC1)C(=O)NCC1OCCCN1S(=O)(=O)c1cc(F)ccc1F (stereo unspecified) | - | - | . | 172 | - | -
CCc1cc2c(nc1CC)CCCN2S(=O)(=O)c1ccccc1 | - | . | . | . | . | .
CC(C)c1ccc(CCNC(=O)c2ccc([N+](=O)[O-])cc2)cc1 | - | - | - | 406 | - | -
COc1ccccc1Nc1nc2ccccc2[nH]1 | . | - | - | - | - | -
CCc1ccccc1Nc1nc2ccccc2[nH]1 | - | . | - | - | - | .
COCCNC(=O)C[C@H]1C=C[C@@H](NC(=O)NC2CCCCC2)[C@@H](CO)O1 | . | - | - | - | . | .
SMILES | FN deposit inh | Statin myotox sup | PGC1a acetyl inh | Yeast UUG start-1 | hiPSC survival | Yeast UUG start-2
N/C(=N\S(=O)(=O)c1ccc(Cl)s1)c1ccccc1 | - | - | . | 117 | - | -
CCS(=O)(=O)/N=C(\N)c1ccccc1 | . | - | - | - | - | .
CC(=O)N1[C@H](CO)[C@H](c2ccccc2)[C@@H]1CN(C(=O)c1ccccc1F)C(C)C | - | . | . | . | . | .
CN(C)c1ccc(/C=C/c2ccc3ccccc3[n+]2C)cc1 | - | - | - | 127 | - | -
C[C@H](CO)N1C[C@H](C)[C@@H](CN(C)C(=O)c2ccccn2)Oc2ncc(Br)cc2C1=O | - | - | - | 202 | . | -
C/C=C/c1cnc2c(c1)C(=O)N([C@H](C)CO)C[C@H](C)[C@H](CN(C)C(=O)c1cnccn1)O2 | . | - | - | 137 | . | -
NC(=O)C[N+]1(CC#CC(O)(c2ccccc2)c2ccccc2)CCCC1 | - | - | - | . | - | -
CCC[N+]1(CC#CC(O)(c2ccccc2)C2CCCCC2)CCCCC1 (stereo unspecified) | - | . | . | . | - | .
CN(C)CC#Cc1ccc([C@@H]2[C@H]3CN(C(=O)Cc4ccccc4)CC(=O)N3[C@H]2CO)cc1 | . | . | - | . | . | .
C[C@@H]1CN([C@@H](C)CO)C(=O)Cc2cc(NC(=O)C3CCCCC3)ccc2O[C@H]1CN(C)C(=O)NC1CCCCC1 | . | - | - | 47 | . | -
O=C(COC(=O)c1cc2ccccc2o1)c1ccccc1 | . | - | - | - | - | -
O=C(NNc1ccccc1C(F)(F)F)c1sccc1Br | - | - | - | active | - | -
O=C(Nc1ccccc1C(F)(F)F)c1ccsc1 | . | - | . | - | - | .
C=CCN(c1ccccc1)S(=O)(=O)c1cccc(C(=O)O)c1 | . | - | . | 519 | - | -
C=CCN(c1ccccc1)S(=O)(=O)c1cccc(C(=O)NNC(=O)c2ccccc2O)c1 | - | - | . | - | - | .
O=C(Cc1c(F)cccc1Cl)Nc1ccccc1-c1ccccc1 | - | - | . | 540 | - | -
O=C(Cc1ccccc1F)Nc1ccccc1-c1ccccc1 | - | . | . | . | - | .
O=C(Cc1cccc2ccccc12)NCC(=O)N1CCN(Cc2cccc(C(F)(F)F)c2)CC1 | - | - | - | 116 | - | -
CCn1c(CCNC(=O)c2ccc(OC)cc2)nnc1SCC(=O)Nc1ccccc1F | . | - | - | 316 | - | -
COc1ccc(OCc2nnc(SCC(=O)NC3CC3)n2C)cc1 | - | - | . | - | - | .
COc1ccc(C(=O)NCc2nnc(SCC(=O)NC3CCCCC3)n2C)cc1 | - | - | . | 349 | - | -
C[C@@H]1CN([C@@H](C)CO)C(=O)Cc2cc(NC(=O)Nc3ccc(F)cc3)ccc2O[C@@H]1CN(C)Cc1ccccc1 | . | - | - | - | . | .
CC1C/C(=C/c2ccncc2)C(=O)/C(=C/c2ccncc2)C1 (stereo unspecified) | - | - | - | 302 | 53 | -
COc1ccc2c3c([nH]c2c1)[C@H](CO)N(S(=O)(=O)c1ccc(C)cc1)CC31CN(Cc2ccccc2)C1 | - | . | - | . | . | .
Cc1ccc(C)c(N2C(=N)S/C(=C\c3ccc(-c4ccccc4C(=O)O)o3)C2=O)c1 | - | - | - | 113 | - | -
CC(C)NC(=O)N(C)C[C@H]1Oc2ccc(NC(=O)Nc3ccc4c(c3)OCO4)cc2C(=O)N([C@@H](C)CO)C[C@H]1C | . | - | - | - | . | .
CCN(CC)CCNC(=O)C(C)c1nn(C)c(=O)c2ccccc12 (stereo unspecified) | . | - | - | - | - | -
CCCCn1nc(CC(=O)NCCN(CC)CC)c2ccccc2c1=O | - | - | - | . | - | -
